The values below come from US20230295260A1, “GLP RECEPTOR AGONISTS” (HEPTARES THERAPEUTICS LIMITED, priority 2020, published 2023).

For orientation: EC50 means the concentration needed to bring the measured effect to its halfway point. A high value points to a less potent agent.

The target of the experiment is T1, human GLP2 receptor (Homo sapiens, UniProt O95838).
T1 sequence (O95838 1-553): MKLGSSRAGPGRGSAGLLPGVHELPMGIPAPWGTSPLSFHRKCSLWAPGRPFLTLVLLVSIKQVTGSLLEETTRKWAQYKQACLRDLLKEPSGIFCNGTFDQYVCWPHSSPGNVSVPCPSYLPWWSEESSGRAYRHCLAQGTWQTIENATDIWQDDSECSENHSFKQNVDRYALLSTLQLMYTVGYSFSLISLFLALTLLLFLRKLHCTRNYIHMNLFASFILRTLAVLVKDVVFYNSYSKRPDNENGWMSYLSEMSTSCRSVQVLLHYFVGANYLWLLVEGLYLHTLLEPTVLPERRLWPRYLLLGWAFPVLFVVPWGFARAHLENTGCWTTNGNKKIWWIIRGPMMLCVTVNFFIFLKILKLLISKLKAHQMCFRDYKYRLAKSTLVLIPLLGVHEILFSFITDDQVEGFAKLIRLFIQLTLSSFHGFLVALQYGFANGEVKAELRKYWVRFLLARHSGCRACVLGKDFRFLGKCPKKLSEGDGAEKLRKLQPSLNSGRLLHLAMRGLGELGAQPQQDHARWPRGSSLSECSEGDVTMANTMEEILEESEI
Nature of the experiment: cAMP accumulation assay (HTRF), functional agonism of human GLP2 receptor in HEK cells.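 Further: HEK cells transduced via BacMam to express human GLP2 receptor, agonist-stimulated cAMP measured by HTRF after 45 min at 37 °C in HBSS with 0.5 mM IBMX.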 In general terms: cAMP levels reflect the balance of adenylyl cyclase and phosphodiesterase activity.

Each structure is given as a SMILES string.

Regarding `CC[C@H](C)[C@H](NC(=O)[C@H](Cc1ccccc1)NC(=O)[C@H](CC(=O)O)NC(=O)[C@H](CCCNC(=N)N)NC(=O)[C@H](C)NC(=O)[C@H](C)NC(=O)[C@H](CC(C)C)NC(=O)[C@H](CC(N)=O)NC(=O)[C@H](CC(=O)O)NC(=O)[C@H](CC(C)C)NC(=O)[C@@H](NC(=O)[C@@H](NC(=O)[C@H](CC(N)=O)NC(=O)[C@H](CCSC)NC(=O)[C@H](CCC(=O)O)NC(=O)[C@H](CC(=O)O)NC(=O)[C@H](CO)NC(=O)[C@H](Cc1ccccc1)NC(=O)[C@H](CO)NC(=O)CNC(=O)[C@H](CC(=O)O)NC(=O)CNC(=O)[C@@H](N)Cc1c[nH]cn1)[C@@H](C)O)[C@@H](C)CC)C(=O)N[C@@H](CC(N)=O)C(=O)N[C@@H](Cc1c[nH]c2ccccc12)C(=O)N[C@@H](CC(C)C)C(=O)N[C@H](C(=O)N[C@@H](CCC(N)=O)C(=O)N[C@H](C(=O)N[C@@H](CCCCN)C(=O)N[C@H](C(=O)N[C@H](C(=O)N[C@@H](CC(=O)O)C(=O)O)[C@@H](C)O)[C@@H](C)CC)[C@@H](C)O)[C@@H](C)CC` [Teduglutide, reference compound], the EC50 was 1.58 pM.
